These are literature values, as cited in patent US20100317733A1, “USE OF CIS-EPOXYEICOSANTRIENOIC ACIDS AND INHIBITORS OF SOLUBLE EPOXIDE HYDROLASE TO REDUCE PULMONARY INFILTRATION BY NEUTROPHILS” (THE REGENTS OF THE UNIVERSITY OF CALIFORNIA, priority 2004, published 2010).

By UniProt entry, the sequences of proteins in these tests, tags left out. Where a name states a change or a piece, a line headed by the entry shows the natural chain unless it says otherwise.
UniProt P80299: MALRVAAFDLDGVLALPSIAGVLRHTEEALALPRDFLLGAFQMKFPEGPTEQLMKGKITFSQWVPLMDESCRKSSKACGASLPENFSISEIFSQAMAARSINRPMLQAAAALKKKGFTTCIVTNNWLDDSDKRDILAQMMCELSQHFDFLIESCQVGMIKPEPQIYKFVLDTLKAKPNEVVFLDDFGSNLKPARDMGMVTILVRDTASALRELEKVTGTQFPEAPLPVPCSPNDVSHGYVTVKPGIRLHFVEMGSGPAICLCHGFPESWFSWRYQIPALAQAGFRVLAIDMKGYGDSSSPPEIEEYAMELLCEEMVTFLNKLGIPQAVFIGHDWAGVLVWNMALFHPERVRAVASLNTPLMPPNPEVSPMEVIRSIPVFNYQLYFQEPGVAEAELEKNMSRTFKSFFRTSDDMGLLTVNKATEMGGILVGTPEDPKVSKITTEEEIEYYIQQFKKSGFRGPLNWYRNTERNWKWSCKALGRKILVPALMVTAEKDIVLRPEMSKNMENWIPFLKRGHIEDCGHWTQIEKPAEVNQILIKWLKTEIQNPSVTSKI

Molecules are shown by their SMILES.

The target of this data set is sEH (Rattus norvegicus, UniProt P80299). Particulars: injection in SH rats; cited from earlier work.

Consider `O=C(NC1CCCCC1)NC1CCCCC1` [DCU, N,N′-dicyclohexyl urea], for which the blood pressure result is listed as “lower blood pressure”, the “urinary 14,15-EET” value is “increase” and the urinary dihydroxy derivative result was “decrease”.
